Test results: US20110236309A1

Tests used:
[1] = biological target: T1, TGF-β3 (Homo sapiens (Human)) (UniProt P10600)
T1 sequence: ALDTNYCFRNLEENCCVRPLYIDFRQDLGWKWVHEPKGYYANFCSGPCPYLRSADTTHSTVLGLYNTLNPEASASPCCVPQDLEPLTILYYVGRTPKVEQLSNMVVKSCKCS

[2] = biological target: TGF-β1 (Homo sapiens (Human)) (UniProt P01137)

With “TβRII-Fc (R&D Systems) (from UniProt P37173) (Fc fusion)” the IC50 for TGF-β3 (neutralization, Mv1Lu luciferase reporter cells) [1] was 0.323 nM and the IC50 for TGF-β1 (neutralization, Mv1Lu luciferase reporter cells) [2] was 0.506 nM.
